Target: Cyclophilin B (CypB) (Homo sapiens (Human), UniProt P23284)
Test: Cyclophilin PPIase enzymatic assay (chymotrypsin coupled), CypB
Format: biochemical
Details: for IC50: CypB
Method: Cyclophilin A, B protein carrying a hexahistidine tag (His-Tag) at the C-terminus, were expressed in Escherichia coli and purified. Briefly, cultures of C41(DE3) cells were grown at 37° C. for ˜1 h until the culture reached an optical density of 0.6 at 600 nm, and induced with 1 mM isopropyl β-D-thiogalactoside for 4 h at 37° C. or overnight at 22° C. for cylophilin A and cyclophilin B, respectively. Cell pellets (1 L) were resuspended in a lysis buffer (20 mM NaH2PO4 (pH 7.8), 300 mM NaCl, 7 mM β-mercaptoethanol, 1 mg/ml lysozyme, 0.1 U/μl Desoxyribonuclease and complete protease inhibitor tablets (Roche)). The sonicated cell lysates were clarified by centrifugation at 10 000 g for 45 min at 4° C., chromatographed on a Ni-NTA column and washed with buffer: (20 mM NaH2PO4 (pH7.8), 300 mM NaCl, 50 mM imidazole, 7 mM β-mercaptoethanol, 10% glycerol). The bound protein was eluted in 1 ml fractions with buffer: (20 mM NaH2PO4 (pH7.8), 300 mM NaCl, 250 mM imidazole, 7 mM β-mercaptoethanol, 10% glycerol) and monitored by the Bradford colorimetric assay. The purity of each cyclophilin was determined by Coomassie-stained SDS-PAGE analysis.
The reaction was initiated by adding 20 μL of 3.2 mM peptide substrate (Suc-Ala-Ala-cis-Pro-Phe-pNA) in LiCl/TFE solution with rapid inversion. […] The final concentration of LiCl in the assay was 20 mM; TFE was present at a concentration of 4% (v/v). Absorbance readings were collected every 1 s by spectrophotometer. The inhibition assays of compounds were performed in the same manner as mentioned above. A 5 μL aliquot of the compounds in DMSO was added to the cyclophilin solution in the assay buffer. The assay was started by the addition of the substrate. Cyclosporine A was used as control in all measurement. The percentage inhibition of cyclophilin PPiase activity were calculated from slopes and values obtained represent an average of at least two independent measurements.

The chains behind the UniProt entries cited, without tags or fusion partners. Residues count along the entry.
UniProt P23284, 34-216: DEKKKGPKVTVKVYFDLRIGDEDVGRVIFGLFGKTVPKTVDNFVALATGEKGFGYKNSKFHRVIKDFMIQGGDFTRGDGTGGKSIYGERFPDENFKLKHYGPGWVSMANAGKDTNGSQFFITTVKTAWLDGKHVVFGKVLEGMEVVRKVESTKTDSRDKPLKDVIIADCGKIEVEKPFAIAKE

| Structure (SMILES) | inhibition at 100 µM [%] | IC50 [µM] |
| --- | --- | --- |
| CN(C(=O)CNC(=O)NCc1ccc(N)cc1)c1ccccc1 [Compound F557, 2-(3-(4-aminobenzyl)ureido)-N-phenyl-N-methylacetamide] | 76 | 44.5 |
| COc1ccc(N(C)C(=O)CNC(=O)NCc2ccc(N)cc2)cc1 [Compound F555, 2-(3-(4-aminobenzyl)ureido)-N-4-methoxyphenyl-N-methylacetamide] | 73.8 | 27.8 |

Source: patent US8901295B2 (Institut National de la Sante et de la Recherche Medicale …, priority 2009, dated 2014)
